# According to patent US7833979B2, “Toxin peptide therapeutic agents” (Amgen Inc., priority 2005, dated 2010):
# Sequences of proteins named here, by UniProt entry; tags and fusion partners are left off.
# UniProt P22001, whole entry: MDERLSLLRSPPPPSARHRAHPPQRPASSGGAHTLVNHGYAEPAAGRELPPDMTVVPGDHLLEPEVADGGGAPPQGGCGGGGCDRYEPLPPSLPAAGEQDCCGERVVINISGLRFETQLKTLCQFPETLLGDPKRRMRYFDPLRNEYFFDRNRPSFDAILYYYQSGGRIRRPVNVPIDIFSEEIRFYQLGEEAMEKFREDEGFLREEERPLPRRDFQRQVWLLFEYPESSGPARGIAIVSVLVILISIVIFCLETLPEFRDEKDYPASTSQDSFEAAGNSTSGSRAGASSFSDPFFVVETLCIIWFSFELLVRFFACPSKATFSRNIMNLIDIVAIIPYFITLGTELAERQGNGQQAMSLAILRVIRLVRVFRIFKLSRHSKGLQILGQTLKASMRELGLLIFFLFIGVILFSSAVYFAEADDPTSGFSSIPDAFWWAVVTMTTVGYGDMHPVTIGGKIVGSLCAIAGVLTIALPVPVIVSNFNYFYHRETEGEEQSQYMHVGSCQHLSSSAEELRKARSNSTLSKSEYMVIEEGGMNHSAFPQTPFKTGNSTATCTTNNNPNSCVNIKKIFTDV
# UniProt Q09470, whole entry: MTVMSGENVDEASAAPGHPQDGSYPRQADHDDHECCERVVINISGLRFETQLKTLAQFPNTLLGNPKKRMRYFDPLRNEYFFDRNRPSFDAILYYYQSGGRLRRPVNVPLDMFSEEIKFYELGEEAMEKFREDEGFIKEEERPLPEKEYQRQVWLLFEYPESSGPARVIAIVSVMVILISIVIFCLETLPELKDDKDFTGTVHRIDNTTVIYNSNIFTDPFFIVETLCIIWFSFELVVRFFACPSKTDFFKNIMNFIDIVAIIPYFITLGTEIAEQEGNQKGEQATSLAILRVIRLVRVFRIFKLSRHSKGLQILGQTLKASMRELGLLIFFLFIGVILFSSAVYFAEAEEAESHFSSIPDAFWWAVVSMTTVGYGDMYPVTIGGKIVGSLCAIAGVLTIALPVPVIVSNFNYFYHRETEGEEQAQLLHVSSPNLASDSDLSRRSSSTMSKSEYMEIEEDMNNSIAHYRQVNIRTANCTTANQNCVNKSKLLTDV
# How the values were obtained:
# Kv1.3 = Kv1.3 (Homo sapiens, UniProt P22001); experiment: Whole cell patch clamp electrophysiology on HEK293 cells stably expressing human Kv1.3; assay type: cell-based; conditions: ratio of hKv1.1 IC50 to hKv1.3 IC50
# human Kv1.1 = target: T1, human Kv1.1 (Homo sapiens, UniProt Q09470); experiment: Whole cell patch clamp electrophysiology, HEK293 cell expression system, human Kv1.1; assay type: cell-based
# T1 construct: expressed in transfected cells; host or cells: HEK293
smiles,measurement,setting,value
"CC[C@H](C)[C@@H]1NC(=O)[C@H](CCCCN)NC(=O)[C@@H](NC(=O)[C@H](CCCCN)NC(=O)[C@@H](NC(=O)[C@H](CC(N)=O)NC(=O)[C@@H](NC(=O)[C@@H](NC(=O)[C@@H](NC(=O)CN)C(C)C)[C@@H](C)CC)[C@@H](C)CC)C(C)C)CSSC[C@@H]2NC(=O)[C@H](CCCCN)NC(=O)CNC(=O)[C@H](Cc3ccccc3)NC(=O)[C@H](CCCNC(=N)N)NC(=O)[C@H](CCSC)NC(=O)CNC(=O)[C@H](C)NC(=O)[C@H](CCCCN)NC(=O)[C@H](CCCCN)NC(=O)[C@@H]3CSSC[C@@H](C(=O)N[C@H](C(=O)N4CCC[C@H]4C(=O)N[C@@H](CCCCN)C(=O)O)[C@@H](C)O)NC(=O)[C@H](Cc4c[nH]cn4)NC(=O)[C@H](CSSC[C@H](NC(=O)[C@H](CCC(N)=O)NC(=O)[C@H](CCCNC(=N)N)NC(=O)[C@H](CO)NC1=O)C(=O)N[C@@H](CC(C)C)C(=O)N[C@@H](CCC(=O)O)C(=O)N1CCC[C@H]1C(=O)N3)NC(=O)[C@H](CCCCN)NC(=O)CNC(=O)[C@H](CC(N)=O)NC(=O)[C@H](CCSC)NC2=O [OSK1, reference compound]",selectivity ratio hKv1.1/hKv1.3,Kv1.3,4
same,Potency and selectivity Kv1.3 versus Kv1.1 (in words),human Kv1.1,more potent in inhibiting human Kv1.3 when compared to Kv1.1
